Assay results published in ChEMBL document CHEMBL3244115 (1979).

Tests used:
B16 [1] = assay: Antitumor activity against mouse B16 cells allografted in BDF mouse assessed as increase in life span at 100 mg/kg, ip administered for 9 days relative to untreated control; conditions: route intraperitoneal
B16 [2] = assay: Antitumor activity against mouse B16 cells allografted in ip dosed BDF mouse assessed as 25% increase in life span administered for 9 days
B16 [3] = assay: Antitumor activity against mouse B16 cells allografted in BDF mouse assessed as increase in life span at 400 mg/kg, ip administered for 9 days relative to untreated control; conditions: route intraperitoneal
B16 [4] = assay: Antitumor activity against mouse B16 cells allografted in BDF mouse assessed as increase in life span at 25 mg/kg, ip administered for 9 days relative to untreated control; conditions: route intraperitoneal
B16 [5] = assay: Antitumor activity against mouse B16 cells allografted in BDF mouse assessed as increase in life span at 50 mg/kg, ip administered for 9 days relative to untreated control; conditions: route intraperitoneal
B16 [6] = assay: Antitumor activity against mouse B16 cells allografted in BDF mouse assessed as increase in life span at 6.25 mg/kg, ip administered for 9 days relative to untreated control; conditions: route intraperitoneal

Compound | log(1/C) (B16 [2]) | T/C (B16 [5]) | further results
CCCCc1ccc(N(CCCl)CCCl)cc1 | 3.44 |  | T/C (B16 [1]): 125%
ClCCN(CCCl)c1ccc(Cl)cc1 | 2.74 |  | T/C (B16 [3]): 108%
COc1ccc(N(CCCl)CCCl)cc1 | 4.68 |  | T/C (B16 [4]): 163%
CCOc1ccc(N(CCCl)CCCl)cc1 | 4.87 | 197% | 
Cc1ccc(N(CCCl)CCCl)cc1 | 3.86 | 137% | 
Nc1cc(N)cc(N(CCCl)CCCl)c1 | 4.45 |  | T/C (B16 [6]): 131%
